Experimental data: patent EP4834897A1, “COMPOUNDS WITH TWO AZAHETEROCYCLES SUBSTITUTED ISOINDOLINONE SKELETON AND USES THEREOF” (dated 2026)

Sequences of proteins named here, by UniProt entry; tags and fusion partners are left off.
UniProt P30291, whole entry: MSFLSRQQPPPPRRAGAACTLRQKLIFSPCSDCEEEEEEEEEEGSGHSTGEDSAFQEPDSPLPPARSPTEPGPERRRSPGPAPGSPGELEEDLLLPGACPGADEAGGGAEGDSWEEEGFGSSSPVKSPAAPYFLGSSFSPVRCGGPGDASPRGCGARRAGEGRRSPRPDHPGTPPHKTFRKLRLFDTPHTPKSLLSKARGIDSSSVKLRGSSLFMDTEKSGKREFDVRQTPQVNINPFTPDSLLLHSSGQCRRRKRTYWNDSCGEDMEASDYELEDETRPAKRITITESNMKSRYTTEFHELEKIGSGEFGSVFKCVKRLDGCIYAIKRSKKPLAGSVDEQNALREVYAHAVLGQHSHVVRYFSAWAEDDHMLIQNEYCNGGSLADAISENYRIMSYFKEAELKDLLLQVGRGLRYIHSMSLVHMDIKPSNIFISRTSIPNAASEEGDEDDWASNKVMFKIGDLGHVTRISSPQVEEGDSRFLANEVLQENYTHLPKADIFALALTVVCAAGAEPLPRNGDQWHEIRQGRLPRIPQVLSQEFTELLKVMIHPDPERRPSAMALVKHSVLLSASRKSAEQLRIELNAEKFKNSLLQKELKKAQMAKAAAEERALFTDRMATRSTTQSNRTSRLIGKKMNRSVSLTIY
UniProt Q96SW2, whole entry: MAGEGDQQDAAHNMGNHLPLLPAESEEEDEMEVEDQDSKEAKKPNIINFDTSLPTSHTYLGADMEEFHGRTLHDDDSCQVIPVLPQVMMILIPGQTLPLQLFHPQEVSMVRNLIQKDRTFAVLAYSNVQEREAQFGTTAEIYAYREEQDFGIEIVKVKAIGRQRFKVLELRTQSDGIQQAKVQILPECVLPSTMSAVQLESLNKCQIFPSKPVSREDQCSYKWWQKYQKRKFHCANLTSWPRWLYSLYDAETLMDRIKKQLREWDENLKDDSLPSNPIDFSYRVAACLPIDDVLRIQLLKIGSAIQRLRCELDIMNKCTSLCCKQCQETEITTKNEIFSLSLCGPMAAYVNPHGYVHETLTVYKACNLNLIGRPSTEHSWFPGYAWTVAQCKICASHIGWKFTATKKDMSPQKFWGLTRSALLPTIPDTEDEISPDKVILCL
UniProt Q9UKS7, whole entry: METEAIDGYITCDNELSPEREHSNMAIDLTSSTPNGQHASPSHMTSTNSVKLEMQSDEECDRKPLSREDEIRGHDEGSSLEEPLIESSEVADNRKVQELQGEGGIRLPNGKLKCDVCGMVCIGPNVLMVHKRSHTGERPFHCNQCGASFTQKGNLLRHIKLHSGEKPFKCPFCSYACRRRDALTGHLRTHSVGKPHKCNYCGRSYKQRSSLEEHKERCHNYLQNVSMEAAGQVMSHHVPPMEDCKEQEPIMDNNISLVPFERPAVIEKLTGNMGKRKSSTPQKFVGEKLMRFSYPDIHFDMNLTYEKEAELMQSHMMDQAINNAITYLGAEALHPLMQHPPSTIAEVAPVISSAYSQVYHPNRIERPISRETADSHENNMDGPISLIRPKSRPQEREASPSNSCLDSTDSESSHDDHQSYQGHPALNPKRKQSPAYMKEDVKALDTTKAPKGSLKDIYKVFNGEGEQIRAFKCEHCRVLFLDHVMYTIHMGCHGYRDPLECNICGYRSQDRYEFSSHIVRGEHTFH
UniProt P15170, whole entry: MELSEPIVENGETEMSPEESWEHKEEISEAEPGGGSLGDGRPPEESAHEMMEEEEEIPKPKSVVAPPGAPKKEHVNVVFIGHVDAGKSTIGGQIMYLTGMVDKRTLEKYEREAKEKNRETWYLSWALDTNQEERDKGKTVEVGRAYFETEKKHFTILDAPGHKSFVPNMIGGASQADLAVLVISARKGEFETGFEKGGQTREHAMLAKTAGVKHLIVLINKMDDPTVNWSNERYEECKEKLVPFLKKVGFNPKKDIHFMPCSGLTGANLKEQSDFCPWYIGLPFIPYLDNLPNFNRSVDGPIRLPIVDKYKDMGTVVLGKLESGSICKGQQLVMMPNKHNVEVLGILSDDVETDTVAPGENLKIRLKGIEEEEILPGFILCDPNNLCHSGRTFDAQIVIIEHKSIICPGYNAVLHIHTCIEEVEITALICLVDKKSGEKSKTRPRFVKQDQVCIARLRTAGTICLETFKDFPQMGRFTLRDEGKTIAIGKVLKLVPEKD
UniProt Q13422, whole entry: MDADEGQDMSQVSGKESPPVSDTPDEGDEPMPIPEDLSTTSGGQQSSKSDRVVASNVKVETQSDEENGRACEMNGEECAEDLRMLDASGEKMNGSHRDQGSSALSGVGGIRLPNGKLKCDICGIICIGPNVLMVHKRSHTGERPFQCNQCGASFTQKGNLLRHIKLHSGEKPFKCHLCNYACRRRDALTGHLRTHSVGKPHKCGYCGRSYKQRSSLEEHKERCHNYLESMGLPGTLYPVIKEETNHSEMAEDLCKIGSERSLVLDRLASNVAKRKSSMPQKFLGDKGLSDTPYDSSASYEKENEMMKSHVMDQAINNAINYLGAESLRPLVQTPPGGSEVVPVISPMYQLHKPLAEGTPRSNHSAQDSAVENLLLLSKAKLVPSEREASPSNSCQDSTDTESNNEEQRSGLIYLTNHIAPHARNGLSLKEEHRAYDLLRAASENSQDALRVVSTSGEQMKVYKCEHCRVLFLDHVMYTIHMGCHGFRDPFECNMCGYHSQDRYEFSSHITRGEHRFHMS
UniProt P48729, whole entry: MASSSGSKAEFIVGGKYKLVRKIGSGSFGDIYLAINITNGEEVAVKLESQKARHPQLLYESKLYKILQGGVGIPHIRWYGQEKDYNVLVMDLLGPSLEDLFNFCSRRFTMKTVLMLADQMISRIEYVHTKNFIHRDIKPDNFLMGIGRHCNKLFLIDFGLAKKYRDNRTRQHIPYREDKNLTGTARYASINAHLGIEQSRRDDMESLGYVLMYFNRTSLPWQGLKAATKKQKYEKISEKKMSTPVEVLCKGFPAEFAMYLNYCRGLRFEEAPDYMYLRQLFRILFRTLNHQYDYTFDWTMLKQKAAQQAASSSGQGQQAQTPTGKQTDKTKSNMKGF
UniProt Q9UKT9, whole entry: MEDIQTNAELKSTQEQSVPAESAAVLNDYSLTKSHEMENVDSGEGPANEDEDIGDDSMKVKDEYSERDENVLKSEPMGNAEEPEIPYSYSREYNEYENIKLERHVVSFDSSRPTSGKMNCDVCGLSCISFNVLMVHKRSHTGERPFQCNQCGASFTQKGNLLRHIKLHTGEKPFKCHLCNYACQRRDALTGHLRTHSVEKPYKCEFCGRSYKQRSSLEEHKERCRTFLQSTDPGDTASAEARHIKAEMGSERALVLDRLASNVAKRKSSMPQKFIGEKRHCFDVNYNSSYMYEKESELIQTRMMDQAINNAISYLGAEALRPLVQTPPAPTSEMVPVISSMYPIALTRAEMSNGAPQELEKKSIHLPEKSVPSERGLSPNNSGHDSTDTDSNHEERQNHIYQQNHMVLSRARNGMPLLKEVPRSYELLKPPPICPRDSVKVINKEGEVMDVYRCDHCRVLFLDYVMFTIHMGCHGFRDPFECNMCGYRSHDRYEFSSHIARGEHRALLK
UniProt Q16531, whole entry partner: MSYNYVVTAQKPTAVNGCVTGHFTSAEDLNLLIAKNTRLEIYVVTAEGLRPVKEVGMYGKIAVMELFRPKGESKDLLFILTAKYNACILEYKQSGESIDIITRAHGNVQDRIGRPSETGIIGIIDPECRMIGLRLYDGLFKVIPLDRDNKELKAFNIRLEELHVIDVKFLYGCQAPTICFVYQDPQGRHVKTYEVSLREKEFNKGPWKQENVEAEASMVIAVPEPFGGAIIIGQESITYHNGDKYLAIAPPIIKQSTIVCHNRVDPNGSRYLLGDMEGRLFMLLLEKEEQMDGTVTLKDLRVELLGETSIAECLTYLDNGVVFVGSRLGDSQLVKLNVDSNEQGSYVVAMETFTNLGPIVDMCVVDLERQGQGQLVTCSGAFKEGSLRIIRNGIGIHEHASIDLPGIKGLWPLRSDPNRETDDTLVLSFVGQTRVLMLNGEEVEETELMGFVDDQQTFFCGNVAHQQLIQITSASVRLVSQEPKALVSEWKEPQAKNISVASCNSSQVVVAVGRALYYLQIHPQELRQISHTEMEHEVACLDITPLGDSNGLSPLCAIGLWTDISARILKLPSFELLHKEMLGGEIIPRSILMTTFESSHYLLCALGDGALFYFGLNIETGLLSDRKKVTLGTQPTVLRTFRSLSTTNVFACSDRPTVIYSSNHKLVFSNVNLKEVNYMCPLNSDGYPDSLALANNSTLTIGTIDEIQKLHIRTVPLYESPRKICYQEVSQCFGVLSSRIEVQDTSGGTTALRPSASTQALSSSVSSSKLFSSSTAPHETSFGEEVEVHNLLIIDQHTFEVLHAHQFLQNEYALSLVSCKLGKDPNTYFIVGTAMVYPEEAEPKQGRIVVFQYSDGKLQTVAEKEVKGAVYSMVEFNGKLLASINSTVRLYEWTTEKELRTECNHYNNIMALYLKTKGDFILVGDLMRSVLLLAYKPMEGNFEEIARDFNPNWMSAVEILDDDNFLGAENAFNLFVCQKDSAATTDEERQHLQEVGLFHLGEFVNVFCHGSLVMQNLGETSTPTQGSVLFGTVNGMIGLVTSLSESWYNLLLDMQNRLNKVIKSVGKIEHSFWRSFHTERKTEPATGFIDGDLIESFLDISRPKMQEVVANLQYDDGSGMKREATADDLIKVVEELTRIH

Tests used:
WEE1 = WEE1 (Homo sapiens, UniProt P30291+Q96SW2); assay: Western blot assay of substrate protein degradation in hPBMCs; details: 24 hours treatment, compounds at 50 nM and 500 nM (concentration behind the class not stated)
IKZF2 = IKZF2 (Homo sapiens, UniProt Q96SW2+Q9UKS7); assay: as above; details: 24 hours treatment, compounds at 50 nM and 500 nM (concentration behind the class not stated)
GSPT1 = GSPT1 (Homo sapiens, UniProt P15170+Q96SW2); assay: as above; details: 24 hours treatment, compounds at 50 nM and 500 nM (concentration behind the class not stated)
IKZF1 = IKZF1 (Homo sapiens, UniProt Q13422+Q96SW2); assay: as above; details: 24 hours treatment, compounds at 50 nM and 500 nM (concentration behind the class not stated)
CK1α = CK1α (Homo sapiens, UniProt P48729+Q96SW2); assay: as above; details: 24 hours treatment, compounds at 50 nM and 500 nM (concentration behind the class not stated)
IKZF3 = IKZF3 (Homo sapiens, UniProt Q96SW2+Q9UKT9); assay: as above; details: 24 hours treatment, compounds at 50 nM and 500 nM (concentration behind the class not stated)
[1] = tested on: Human breast cancer cell (MCF-7); assay: Tumor cell proliferation inhibition (cell viability assay); details: MCF-7 cells, 96 hours
[2] = tested on: Human myeloid monocytic leukemia cell (MV-4-11); assay: as above; details: MV-4-11 cells, 96 hours
[3] = tested on: Human multiple myeloma cell (MM.1S); assay: as above; details: MM.1S cells, 96 hours
[4] = tested on: Human acute T lymphocytic leukemia cell (Molt4); assay: as above; details: Molt4 cells, 96 hours
[5] = tested on: Human colon cancer cell (SW620); assay: as above; details: SW620 cells, 96 hours
CRBN = CRBN (Homo sapiens, UniProt Q96SW2); assay: CRBN binding affinity by HTRF (CEREBLON BINDING kit); details: CRBN binding, HTRF; for Inhibition Rate at 0.5 µM (%): compound at 0.5 µM; for Inhibition Rate at 2 µM (%): compound at 2 µM
[6] = tested on: Human diffuse large B-cell lymphoma cell (TMD8); assay: Tumor cell proliferation inhibition (cell viability assay); details: TMD8 cells, 96 hours
[7] = tested on: Human mantle cell lymphoma cell line (JEKO-1); assay: as above; details: JEKO-1 cells, 96 hours
IL-2 = assay: Inflammatory cytokine release from PBMCs induced by PHA (flow cytometry CBA); details: PBMCs, PHA 1 µg/mL, 24 h

Structure (SMILES) | substrate protein remaining % (WEE1) (WEE1) | substrate protein remaining % (IKZF2) (IKZF2) | substrate protein remaining % (GSPT1) (GSPT1) | substrate protein remaining % (IKZF 1) (IKZF1) | substrate protein remaining % (CK1a) (CK1α) | substrate protein remaining % (IKZF3) (IKZF3) | Inhibition Rate at 10 nM (%) [1] | Inhibition Rate at 500 nM (%) [1] | Inhibition Rate at 10 nM (%) [2] | Inhibition Rate at 500 nM (%) [2] | Inhibition Rate at 10 nM (%) [3] | Inhibition Rate at 500 nM (%) [3] | Inhibition Rate at 10 nM (%) [4] | Inhibition Rate at 500 nM (%) [4] | Inhibition Rate at 10 nM (%) [5] | Inhibition Rate at 500 nM (%) [5] | Inhibition Rate at 0.5 µM (%) (CRBN) | Inhibition Rate at 2 µM (%) (CRBN) | Inhibition Rate at 10 nM (%) [6] | Inhibition Rate at 500 nM (%) [6] | further results
O=C1CCC(N2Cc3cc(CN4CCC(N5CCN(c6noc7cc(F)ccc67)CC5)C(F)(F)C4)c(F)cc3C2=O)C(=O)N1 (stereo not shown) | A (0% ≤ substrate protein remaining % ≤ 80%) | A (0% ≤ substrate protein remaining % ≤ 80%) | A (0% ≤ substrate protein remaining % ≤ 80%) | A (0% ≤ substrate protein remaining % ≤ 80%) | A (0% ≤ substrate protein remaining % ≤ 80%) | A (0% ≤ substrate protein remaining % ≤ 80%) | 1e5 (20% ≤ 1e5 < 30%) | 1e7 (40% ≤ 1e7 < 50%) | 1a10 (80% ≤ 1a10 < 100%) | 1a11 (100% ≤ 1a11 ≤ 105%) | 1b10 (80% ≤ 1b10 ≤ 100%) | 1b10 (80% ≤ 1b10 ≤ 100%) | 1c11 (80% ≤ 1c11 ≤ 100%) | 1c11 (80% ≤ 1c11 ≤ 100%) | 1d9 (70% ≤ 1d9 < 80%) | 1d10 (80% ≤ 1d10 ≤ 100%) |  |  |  |  | 
CC1(C)CCC(CN2CCN(C3CCN(C(=O)c4cccc5c4CN(C4CCC(=O)NC4=O)C5=O)CC3(F)F)CC2)=C(c2ccc(Cl)cc2)C1 (stereo not shown) | B (80%< substrate protein remaining %≤ 100%) | B (80%< substrate protein remaining %≤ 100%) | A (0% ≤ substrate protein remaining % ≤ 80%) | B (80%< substrate protein remaining %≤ 100%) | A (0% ≤ substrate protein remaining % ≤ 80%) | B (80%< substrate protein remaining %≤ 100%) |  |  |  |  |  |  |  |  |  |  | a3 (30% < a3 ≤ 40%) | a6 (60% < a6 ≤ 70%) | 1f3 (10% ≤ 1f3 < 20%) | 1f7 (50% ≤ 1f7 < 60%) | 
O=C1CCC(N2Cc3c(C(=O)N4CCC(N5CCN(c6noc7cc(F)ccc67)CC5)CC4)cccc3C2=O)C(=O)N1 (stereo not shown) | A (0% ≤ substrate protein remaining % ≤ 80%) | B (80%< substrate protein remaining %≤ 100%) | A (0% ≤ substrate protein remaining % ≤ 80%) | B (80%< substrate protein remaining %≤ 100%) | A (0% ≤ substrate protein remaining % ≤ 80%) | B (80%< substrate protein remaining %≤ 100%) |  |  | 1a5 (30% ≤ 1a5 ≤ 40%) | 1a10 (80% ≤ 1a10 < 100%) |  |  | 1c6 (30% ≤ 1c6 < 40%) | 1c7 (40% ≤ 1c7 < 50%) |  |  | a3 (30% < a3 ≤ 40%) | a6 (60% < a6 ≤ 70%) | 1f6 (40% ≤ 1f6 < 50%) | 1f8 (60% ≤ 1f8 < 70%) | 
O=C1CCC(N2Cc3c(ccc(CN4CCC(N5CCN(c6cccc(Cl)c6Cl)CC5)C(F)(F)C4)c3F)C2=O)C(=O)N1 (stereo not shown) | A (0% ≤ substrate protein remaining % ≤ 80%) | A (0% ≤ substrate protein remaining % ≤ 80%) | A (0% ≤ substrate protein remaining % ≤ 80%) | A (0% ≤ substrate protein remaining % ≤ 80%) | A (0% ≤ substrate protein remaining % ≤ 80%) | A (0% ≤ substrate protein remaining % ≤ 80%) | 1e6 (30% ≤ 1e6 < 40%) | 1e8 (50% ≤ 1e8 < 60%) | 1a6 (40% < 1a6 < 50%) | 1a10 (80% ≤ 1a10 < 100%) | 1b6 (42% ≤ 1b6 < 50%) | 1b10 (80% ≤ 1b10 ≤ 100%) | 1c6 (30% ≤ 1c6 < 40%) | 1c10 (70% ≤ 1c10 < 80%) | 1d3 (10% ≤ 1d3 < 20%) | 1d9 (70% ≤ 1d9 < 80%) |  |  |  |  | Inhibition Rate at 10 nM (%) [7]: 1g3 (10% ≤ 1g3 < 20%); Inhibition Rate at 500 nM (%) [7]: 1g8 (60% ≤ 1g8 < 70%)
O=C1CCC(N2Cc3c(CN4CCC(N5CC=C(c6cccc(Cl)c6Cl)CC5)C(F)(F)C4)cccc3C2=O)C(=O)N1 (stereo not shown) | A (0% ≤ substrate protein remaining % ≤ 80%) | A (0% ≤ substrate protein remaining % ≤ 80%) | A (0% ≤ substrate protein remaining % ≤ 80%) | A (0% ≤ substrate protein remaining % ≤ 80%) | A (0% ≤ substrate protein remaining % ≤ 80%) | A (0% ≤ substrate protein remaining % ≤ 80%) | 1e5 (20% ≤ 1e5 < 30%) | 1e10 (70% ≤ 1e10 < 80%) | 1a7 (50% ≤ 1a7 < 60%) | 1a11 (100% ≤ 1a11 ≤ 105%) | 1b7 (50% ≤ 1b7 < 60%) | 1b10 (80% ≤ 1b10 ≤ 100%) | 1c4 (10% ≤ 1c4 < 20%) | 1c11 (80% ≤ 1c11 ≤ 100%) | 1d4 (20% ≤ 1d4 < 30%) | 1d10 (80% ≤ 1d10 ≤ 100%) |  |  |  |  | Inhibition Rate at 10 nM (%) [7]: 1g4 (20% ≤ 1g4 < 30%); Inhibition Rate at 500 nM (%) [7]: 1g10 (80% ≤ 1g10 ≤ 100%)
CC1(C)CCC(CN2CCN(C3CCN(Cc4cc5c(cc4F)C(=O)N(C4CCC(=O)NC4=O)C5)CC3(F)F)CC2)=C(c2ccc(Cl)cc2)C1 (stereo not shown) | A (0% ≤ substrate protein remaining % ≤ 80%) | B (80%< substrate protein remaining %≤ 100%) | A (0% ≤ substrate protein remaining % ≤ 80%) | A (0% ≤ substrate protein remaining % ≤ 80%) | A (0% ≤ substrate protein remaining % ≤ 80%) | B (80%< substrate protein remaining %≤ 100%) | 1e5 (20% ≤ 1e5 < 30%) | 1e8 (50% ≤ 1e8 < 60%) | 1a9 (70% ≤ 1a9 < 80%) | 1a10 (80% ≤ 1a10 < 100%) | 1b7 (50% ≤ 1b7 < 60%) | 1b10 (80% ≤ 1b10 ≤ 100%) | 1c9 (60% ≤ 1c9 < 70%) | 1c10 (70% ≤ 1c10 < 80%) | 1d7 (50% ≤ 1d7 < 60%) | 1d9 (70% ≤ 1d9 < 80%) | a2 (20% < a2 ≤ 30%) | a6 (60% < a6 ≤ 70%) |  |  | Inhibition Rate at 10 nM (%) [7]: 1g4 (20% ≤ 1g4 < 30%); Inhibition Rate at 500 nM (%) [7]: 1g6 (40% ≤ 1g6 < 50%)
O=C1CCC(N2C(=O)c3ccc(CN4CCC(N5CCN(c6noc7cc(F)ccc67)CC5)CC4)cc3C2=O)C(=O)N1 (stereo not shown) |  |  |  |  |  |  |  |  |  |  |  |  |  |  |  |  |  |  | 1f9 (70% ≤ 1f9 < 80%) | 1f10 (80% ≤ 1f10 ≤ 100%) | Inhibition Rate (%) IL-2 (IL-2; 0.1 µM): IV9 (40% < IV9 ≤ 50%); Inhibition Rate (%) IL-2 (IL-2; 1 µM): IV8 (30% < IV8 ≤ 40%)
